According to US9289478B2, “Formulations of tumour-associated peptides binding to human leukocyte antigen (HLA) class I or class II molecules for vaccine” (IMMATICS BIOTECHNOLOGIES GMBH, priority 2008, dated 2016):

Assays:
[1] = HPLC-assay for in-use stability after reconstitution with 4.2% sodium hydrogen carbonate solution (Example 3, peptides SEQ ID NO 11-23); type: physicochemical
Protocol: For clinical trials the above described formulation is dissolved in 700 μl sodium hydrogen carbonate (4.2%). To dissolve the lyophilisate, the vial and the diluent shall be shaken vigorously for 1 minute, check whether solution is clear, otherwise continue shaking for another minute until the solution is clear. Administration of 500 μL of the solution has to occur within 1 h after reconstitution. Dissolved lyophilisate may be stored aseptically at room temperature for up to 1 hour following reconstitution.
(§1) Identity, purity and peptide content are determined by analytical RP-HPLC chromatography. Detection wavelength was 220 nm.

[2] = HPLC-assay for stability of peptides in lyophilised formulation on storage for 3 months (Example 4); type: physicochemical; details: for stability of peptides in formulation, 1 M: 1 month; for stability of peptides in formulation, 2 M: 2 months; for stability of peptides in formulation, 3 M: 3 months
Protocol: as §1

Compound	in-use stability, Peptide [%] ([1]; +Mannitol/Lutrol, 4h)	in-use stability, Peptide [%] ([1]; no excipients, 4h)	in-use stability, Peptide [%] ([1]; +Mannitol/Lutrol, 2h)	in-use stability, Peptide [%] ([1]; +Mannitol/Lutrol, 6h)	in-use stability, Peptide [%] ([1]; +Mannitol/Lutrol, Initial)	in-use stability, Peptide [%] ([1]; no excipients, 2h)	in-use stability, Peptide [%] ([1]; no excipients, 6h)	in-use stability, Peptide [%] ([1]; no excipients, Initial)	stability of peptides in formulation, 1 M ([2]; +5° C. +/- 3° C.)	stability of peptides in formulation, 2 M ([2]; +5° C. +/- 3° C.)	stability of peptides in formulation, 3 M ([2]; +5° C. +/- 3° C.)	stability of peptides in formulation, INITIAL ([2]; +5° C. +/- 3° C.) [%]	stability of peptides in formulation, 1 M ([2]; +25° C. +/- 2° C.)	stability of peptides in formulation, 2 M ([2]; +25° C. +/- 2° C.)	stability of peptides in formulation, 3 M ([2]; +25° C. +/- 2° C.)	stability of peptides in formulation, INITIAL ([2]; +25° C. +/- 2° C.) [%]	stability of peptides in formulation, 1 M ([2]; -20° C. +/- 5° C.)	stability of peptides in formulation, 2 M ([2]; -20° C. +/- 5° C.)	stability of peptides in formulation, 3 M ([2]; -20° C. +/- 5° C.)	stability of peptides in formulation, INITIAL ([2]; -20° C. +/- 5° C.) [%]
CC(C)C[C@H](NC(=O)[C@@H](NC(=O)[C@@H](NC(=O)[C@@H](NC(=O)CNC(=O)[C@H](C)NC(=O)[C@H](Cc1c[nH]c2ccccc12)NC(=O)[C@H](CC(C)C)NC(=O)[C@@H](N)CO)C(C)C)C(C)C)C(C)C)C(=O)O [CHI-001, SLWAGVVVL]	100.7	101.3	–	–	–	–	–	–	–	–	–	–	–	–	–	–	–	–	–	–
FLPSDFFPSV [HBV-001]	100.6	100.6	100.3	100.3	100.0	100.2	95.8	100.0	98.87 % of Initial	97.76 % of Initial	98.47 % of Initial	100.0	97.83 % of Initial	96.47 % of Initial	97.50 % of Initial	100.0	98.93 % of Initial	97.39 % of Initial	98.34 % of Initial	100.0
